# According to patent US20190365806A1, “IMMUNOLOGICALLY DISCERNIBLE CELL SURFACE VARIANTS FOR USE IN CELL THERAPY” (UNIVERSITÄT BASEL, priority 2016, published 2019):
# Test system: CD25/Foxp3+ Treg cells
# Experiment: IL-2 treatment of mice that received WT and Repaired cells
# Format: in vivo
# Details: IL-2 during the last week of experiment
# Source text: In vitro activation and electroporation with plasmids encoding sgRNA targeting the Foxp3K276X mutation and a circular plasmid containing a 1 kb wt Foxp3 repair template. Successfully transfected cells are isolated based on GFP expression. Cells are the transferred in vivo for Foxp3 differentiation followed by IL-2 regimen.
# No CD25/Foxp3+ T cells are found in mice that received KO cells.
substance,measurement,value
IL-2: Interleukin-2 treatment during the last week of experiment,CD25/Foxp3+ Treg cells after additional IL-2 treatment,increased presence of CD25/Foxp3+ Treg cells
